Measured values: US20060115816A1, “Splice variant cannabinoid receptor (cb1b)” (priority 2002, published 2006)

Sequences of proteins named here, by UniProt entry; tags and fusion partners are left off.
UniProt P34972, whole entry: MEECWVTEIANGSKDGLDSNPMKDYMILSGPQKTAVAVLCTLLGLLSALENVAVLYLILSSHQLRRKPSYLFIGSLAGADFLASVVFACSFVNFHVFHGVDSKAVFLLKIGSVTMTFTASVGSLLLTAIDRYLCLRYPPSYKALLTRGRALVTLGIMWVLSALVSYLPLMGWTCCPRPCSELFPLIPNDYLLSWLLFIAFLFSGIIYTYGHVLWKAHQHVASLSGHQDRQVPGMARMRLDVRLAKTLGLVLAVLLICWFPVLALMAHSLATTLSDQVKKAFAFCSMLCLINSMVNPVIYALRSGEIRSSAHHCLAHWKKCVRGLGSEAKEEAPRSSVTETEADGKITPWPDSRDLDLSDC

Target: T1, hCB2 (Homo sapiens, UniProt P34972)
T1 construct: expressed in transfected cells
Experiment: GTPγ[35S] binding assay, agonist properties on hCB2
Type: biochemical

CCCCC/C=C\C/C=C\C/C=C\C/C=C\CCCC(=O)NCCO [Anandamide]
EC50: 99 nM
